Earlier results in US5885786A, “Methods for screening of substances for inhibition of multidrug resistance” (priority 1996, dated 1999).

Conditions: oral or unspecified; cited from earlier work

In the case of O=C(O)CCCc1ccc(N(CCCl)CCCl)cc1 [Chlorambucil, 4-[bis(2-chlorethyl)amino] benzenebutanoic acid], the “absorption (in words)” value is given as “rapidly and completely absorbed”.
